The list shows a part of the results, in another mix than the full data. Results filed as inconclusive are left out. The source made the active and inactive calls. Unless noted, the call rests on the fitted dose curve; in most records, active means well fitted curve in the direction sought with a large enough effect in the repeat runs; inconclusive means weak or mixed curves; inactive means no such curve, though single readings can be large; an effect the other way counts as inactive or inconclusive.
Key:
[1] = qHTS assay to identify small molecule antagonists of the estrogen related receptor (ERR) signaling pathway from Tox21 library - cell viability counter screen (AID 1224834); settings: ERR reporter cells viability, CellTiter-Fluor, 17.5 h; further: nearly all actives have a fitted effect of over 30% in size
How it was run: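 ERR reporter cells were plated 6 h before compound addition, then exposed to test compounds in DMSO for 17.5 h at 37 C. Viability was read as CellTiter-Fluor fluorescence after a 30-minute incubation at 37 C.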

Protein sequences, listed by entry. Tags and fused reporters are not part of them.
UniProt P08659, whole entry: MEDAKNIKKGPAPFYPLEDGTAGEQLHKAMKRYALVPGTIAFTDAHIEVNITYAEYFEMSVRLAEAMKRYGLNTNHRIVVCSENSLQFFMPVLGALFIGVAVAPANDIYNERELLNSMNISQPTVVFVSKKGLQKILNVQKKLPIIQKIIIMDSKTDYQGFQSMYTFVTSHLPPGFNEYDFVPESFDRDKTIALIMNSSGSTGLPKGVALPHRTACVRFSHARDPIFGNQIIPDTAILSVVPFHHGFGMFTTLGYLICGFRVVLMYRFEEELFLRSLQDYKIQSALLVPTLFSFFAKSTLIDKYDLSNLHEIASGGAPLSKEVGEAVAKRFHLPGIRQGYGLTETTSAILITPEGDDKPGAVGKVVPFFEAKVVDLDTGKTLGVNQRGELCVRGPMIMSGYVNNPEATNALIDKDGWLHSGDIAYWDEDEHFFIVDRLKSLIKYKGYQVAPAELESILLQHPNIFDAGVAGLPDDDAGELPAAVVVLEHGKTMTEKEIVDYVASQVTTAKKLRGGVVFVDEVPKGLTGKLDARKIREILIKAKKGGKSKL
UniProt Q14994, whole entry: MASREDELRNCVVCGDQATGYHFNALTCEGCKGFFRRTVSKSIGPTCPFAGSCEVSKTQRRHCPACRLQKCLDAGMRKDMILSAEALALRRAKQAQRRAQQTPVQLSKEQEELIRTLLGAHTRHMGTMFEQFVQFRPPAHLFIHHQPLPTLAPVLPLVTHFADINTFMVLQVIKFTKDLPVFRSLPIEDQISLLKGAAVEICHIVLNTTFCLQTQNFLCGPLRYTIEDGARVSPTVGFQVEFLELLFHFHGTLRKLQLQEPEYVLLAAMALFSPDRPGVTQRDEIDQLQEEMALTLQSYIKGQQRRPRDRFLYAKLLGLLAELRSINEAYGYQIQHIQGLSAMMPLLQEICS
UniProt P16473, whole entry: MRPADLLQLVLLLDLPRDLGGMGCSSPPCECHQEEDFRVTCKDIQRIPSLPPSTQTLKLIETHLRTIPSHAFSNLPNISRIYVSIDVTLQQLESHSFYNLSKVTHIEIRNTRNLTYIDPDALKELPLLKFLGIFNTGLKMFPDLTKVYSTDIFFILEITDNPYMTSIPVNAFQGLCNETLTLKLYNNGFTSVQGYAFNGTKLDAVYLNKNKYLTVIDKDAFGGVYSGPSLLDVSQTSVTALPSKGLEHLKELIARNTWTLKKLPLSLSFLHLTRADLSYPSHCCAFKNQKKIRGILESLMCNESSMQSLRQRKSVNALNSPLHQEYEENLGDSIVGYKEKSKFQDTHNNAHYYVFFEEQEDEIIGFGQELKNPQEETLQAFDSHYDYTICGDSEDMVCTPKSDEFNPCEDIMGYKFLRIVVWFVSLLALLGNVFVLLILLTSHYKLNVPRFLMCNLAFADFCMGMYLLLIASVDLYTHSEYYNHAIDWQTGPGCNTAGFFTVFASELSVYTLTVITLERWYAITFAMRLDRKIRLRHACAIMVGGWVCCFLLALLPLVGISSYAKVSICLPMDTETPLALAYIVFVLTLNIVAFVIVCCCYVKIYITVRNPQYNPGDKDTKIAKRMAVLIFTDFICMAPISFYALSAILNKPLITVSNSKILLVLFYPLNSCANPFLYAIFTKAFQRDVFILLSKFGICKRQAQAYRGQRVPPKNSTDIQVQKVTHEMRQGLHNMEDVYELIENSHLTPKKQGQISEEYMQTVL

[2] = molecular target: Luciferin 4-monooxygenase (Photinus pyralis) (UniProt P08659); assay: qHTS assay to identify small molecule inhibitors of firefly luciferase (AID 1224835); further: nearly all actives have a fitted effect of over 25% in size
How it was run: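 Biochemical qHTS: compounds run as interplate titrations against purified firefly enzyme, with D-luciferin and ATP each at its KM concentration. Light output recorded by CCD imaging.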

[3] = qHTS assay to identify small molecule agonists of the constitutive androstane receptor (CAR) signaling pathway - cell viability counter screen (AID 1224836); settings: HepG2-CYP2B6-hCAR viability, CellTiter-Fluor, 23 h, PK11195 added to every well; further: nearly all actives have a fitted effect of over 45% in size
How it was run: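 Double-stable HepG2 hepatoma cells (hCAR plus CYP2B6-2.2kb) are treated for 23 h at 37 C with test compounds in 15-point concentration series. PK11195 at 0.75 uM final is co-added. Cell viability is quantified by CellTiter-Fluor.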

[4] = qHTS assay to identify small molecule antagonists of the constitutive androstane receptor (CAR) signaling pathway - cell viability counter screen (AID 1224837); settings: HepG2-CYP2B6-hCAR viability, CellTiter-Fluor, 23 h, co-treated with 50 nM CITCO; further: nearly all actives have a fitted effect of over 45% in size
How it was run: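 HepG2 cells stably expressing hCAR and a CYP2B6-2.2kb reporter were plated and pre-incubated 4 hr at 37 C/5% CO2, then given compounds at 15 concentrations plus 50 nM CITCO (final). After 23 hr, viability was read by CellTiter-Fluor fluorescence.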

[5] = molecular target: Nuclear receptor subfamily 1 group I member 3 (Homo sapiens) (UniProt Q14994); assay: qHTS assay to identify small molecule antagonists of the constitutive androstane receptor (CAR) signaling pathway (AID 1224838); settings: HepG2-CYP2B6-hCAR luciferase, CITCO-stimulated, 24 h; further: nearly all actives have a fitted effect of over 40% in size
[6] = qHTS assay to identify small molecule antagonists of the estrogen related receptor signaling pathway with the pleiotropic PPARgamma coactivator (PGC) from Tox21 10K library - cell viability counter screen (AID 1224840; active means well fitted cell-killing curve with a large enough effect in the repeat runs, not every such curve was filed as active; further: nearly all actives have a fitted effect of over 40% in size); settings: PGC/ERR reporter cells viability, CellTiter-Fluor, 17.5 h
How it was run: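 PGC/ERR cells were seeded at 2,000 cells/well and left 6 hours at 37 C/5% CO2 before pin-tool addition of compounds in DMSO. After 17.5 hours at 37 C, CellTiter-Fluor was added and fluorescence read 30 minutes later.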

[7] = qHTS assay to identify small molecule agonists of the estrogen related receptor signaling pathway with the pleiotropic PPARgamma coactivator (PGC) from Tox21 10K library (AID 1224842); settings: PGC/ERR reporter cell line, luciferase ONE-Glo, 18 h; further: nearly all actives have a fitted effect of over 15% in size
How it was run: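 PGC/ERR reporter cell line, 2,000 cells per well, incubated 6 h at 37 C before 23 nL compound in DMSO was added. After 18 h at 37 C, One-Glo luminescence read following 30 min at room temperature.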

[8] = molecular target: Thyrotropin receptor (Homo sapiens) (UniProt P16473); assay: qHTS assay to identify small molecule agonists of the thyroid stimulating hormone receptor (TSHR) signaling pathway (AID 1224843; calls by dose curve; further: nearly all actives have a fitted effect of over 45% in size); settings: TSHR-HEK293 cells, cAMP HTRF, agonist mode, 30 min
[9] = qHTS assay to identify small molecule agonists of the hypoxia (HIF-1) signaling pathway - cell viability counter screen (AID 1224844; calls by dose curve; further: nearly all actives have a fitted effect of over 50% in size); settings: HRE-bla ME-180 viability, CellTiter-Glo luminescence, 17 h
How it was run: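 HRE-bla ME-180 cells in medium with 0.5% dialyzed FBS were preincubated 5 hrs at 37C, exposed to compounds for 17 hrs, then viability was read as CellTiter-Glo luminescence after 30 min at room temperature, in the reporter wells.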

[10] = qHTS assay to identify small molecule agonists of the hypoxia (HIF-1) signaling pathway (AID 1224846; active means well fitted activation curve with a large enough effect in the signal ratio in the repeat runs, not every such curve was filed as active; the % refers to the signal ratio); settings: HRE-bla ME-180 cells, beta-lactamase ratio, 17 h
How it was run: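 HRE-bla ME-180 cells (beta-lactamase reporter under hypoxia response element) were plated at 2,000 cells/well in medium with 0.5% dialyzed FBS, rested 5 hrs, then given compounds in DMSO for 17 hrs at 37C, 5% CO2. Reporter induction was read with CCF4-AM FRET substrate.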

[11] = qHTS assay to identify small molecule agonists of H2AX - cell viability counter screen (AID 1224847; calls by dose curve;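 further: wild-type CHO-K1 cells; top concentration of the series differs between compounds; nearly all actives have a fitted effect of over 30% in size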); settings: CHO-K1 viability, CellTiter-Glo luminescence, 3 h
How it was run: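 For this counter screen, overnight-attached CHO-K1 cells received test compounds (15 concentrations, 0.76% DMSO final); 3 hr later at 37C, CellTiter-Glo reagent was added and luminescence recorded after 30 min at room temperature.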

[12] = qHTS assay to identify small molecule antagonists of the estrogen related receptor (ERR) signaling pathway from Tox21 library (AID 1224848); further: nearly all actives have a fitted effect of over 50% in size
How it was run: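 Luminescent reporter read-out (ONE-Glo) from NTP's ERR cell line after 18 h treatment at 37 C with DMSO-dissolved Tox21 compounds; cells pre-plated 6 h beforehand at 2,000 per well.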

[13] = qHTS assay to identify small molecule agonists of the estrogen related receptor (ERR) signaling pathway from Tox21 library (AID 1224849; calls by dose curve; further: nearly all actives have a fitted effect of over 15% in size); settings: ERR reporter cell line, ONE-Glo luciferase, 18 h
How it was run: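 ERR reporter cell line (NTP) seeded, rested 6 h at 37 C/5% CO2, then pinned with Tox21 compounds in DMSO. After 18 h at 37 C, ONE-Glo luciferase luminescence was read following 30 min at room temperature.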

[14] = qHTS RealTime-Glo MT Cell Viability Assay in HepG2 cells - 24 hour (AID 1224867); settings: RealTime-Glo luminescence; further: nearly all actives have a fitted effect of over 50% in size
How it was run: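 Viability was tracked continuously by NanoLuc luminescence from prosubstrate reduced by living HepG2 cells, at successive time points over 40 h of compound exposure. Cells with reagent were preincubated 5 h at 37 °C before compound addition.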

[15] = qHTS RealTime-Glo MT Cell Viability Assay in HEK293 cells - 32 hour (AID 1224868); settings: RealTime-Glo luminescence; further: top concentration of the series differs between compounds; nearly all actives have a fitted effect of over 50% in size
How it was run: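 Viability tracked continuously by luminescence as live cells reduce a prosubstrate for NanoLuc; HEK293 cells preincubated 5 h, compound-treated at 37 C, and read at 0, 8, 16, 24, 32 and 40 h.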

[16] = A CellTox Green Cytotoxicity Assay to monitor cytotoxicity in HEK293 cells - 0 hour (AID 1224869); further: nearly all actives have a fitted effect of over 50% in size
How it was run: (§1)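 HEK293 cells premixed with CellTox Green dye were seeded at 600 cells/well and left 5 h at 37 C/5% CO2 before pin transfer of 23 nL compound in DMSO. Fluorescence from dye bound to dead-cell DNA was read during 40 h treatment.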

[17] = A CellTox Green Cytotoxicity Assay to monitor cytotoxicity in HEK293 cells - 24 hour (AID 1224875); further: nearly all actives have a fitted effect of over 45% in size
How it was run: as §1

[18] = molecular target: Nuclear receptor subfamily 1 group I member 3 (Homo sapiens) (UniProt Q14994); assay: qHTS assay to identify small molecule agonists of the constitutive androstane receptor (CAR) signaling pathway (AID 1224839);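 further: HepG2 cells stably carrying human CAR and a CYP2B6 luciferase reporter; nearly all actives have a fitted effect of over 15% in size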
[19] = qHTS RealTime-Glo MT Cell Viability Assay in HepG2 cells - 8 hour (AID 1224873); settings: RealTime-Glo luminescence; at 76.8 µM (top of the series) unless noted; further: nearly all actives have a fitted effect of over 55% in size
How it was run: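 HepG2 cells (600/well) mixed with RealTime-Glo MT reagent, settled 5 h at 37 C/5% CO2 before compound addition. Nonlytic NanoLuc luminescence from viable-cell prosubstrate reduction read repeatedly during 40 h treatment at 37 C.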

[20] = qHTS assay to identify small molecule antagonists of the estrogen related receptor signaling pathway with the pleiotropic PPARgamma coactivator (PGC) from Tox21 10K library (AID 1224841; call rule not given here)
[21] = at 76.8 µM (top of the series) unless noted
On the % scale 0 is the no-effect control and ±100 the full control effect.

OCCSCCO
inactive: viability change, negative = cytotoxic ([1]; at 42.5 µM (top of the series)) 4.21% | viability change, negative = cytotoxic ([1]; at 92.4 µM (top of the series)) 0.364% | Potency [2] | viability change, negative = cytotoxic ([3]; at 42.5 µM (top of the series)) 3.68% | viability change, negative = cytotoxic ([3]; at 92.4 µM (top of the series)) 1.89% | activity change, negative = cytotoxicity ([4]; at 42.5 µM (top of the series)) 6.26% | activity change, negative = cytotoxicity ([4]; at 92.4 µM (top of the series)) 1.14% | activity, negative = inhibition ([5]; at 42.5 µM (top of the series)) -1.01% | activity, negative = inhibition ([5]; at 92.4 µM (top of the series)) -8.61% | viability change, negative = cytotoxic ([6]; at 42.5 µM (top of the series)) 11.3% | viability change, negative = cytotoxic ([6]; at 92.4 µM (top of the series)) 2.62% | activation ([7]; at 42.5 µM (top of the series)) -4.69% | activation ([7]; at 92.4 µM (top of the series)) 3.2% | activation ([8]; at 42.5 µM (top of the series)) -3.74% | activation ([8]; at 92.4 µM (top of the series)) 4.67% | activity change, negative = cytotoxicity ([9]; at 35.3 µM (top of the series)) 1.69% | activity change, negative = cytotoxicity ([9]; at 76.8 µM (top of the series)) -1.67% | activation ([10]; at 35.5 µM (top of the series)) -0.645% | activation ([10]; at 76.8 µM (top of the series)) -0.127% | activity change, negative = cytotoxicity ([11]; at 70.9 µM (top of the series)) 8.7% | activity change, negative = cytotoxicity ([11]; at 154 µM (top of the series)) -0.193% | Potency [12] | activity change, positive = activation ([13]; at 42.5 µM (top of the series)) 7.72% | activity change, positive = activation ([13]; at 92.4 µM (top of the series)) -3.47% | activity change, negative = cytotoxicity ([14]; at 35.3 µM (top of the series)) -13.8% | activity change, negative = cytotoxicity ([14]; at 76.8 µM (top of the series)) -1.08% | activity change, negative = cytotoxic ([15]; at 35.3 µM (top of the series)) -1.82% | activity change, negative = cytotoxic ([15]; at 76.8 µM (top of the series)) -7.62% | Potency [16] | Potency [17]

Nc1cc([N+](=O)[O-])cc([N+](=O)[O-])c1O
inactive: Potency [2] | activity, negative = inhibition ([5]; at 92.4 µM (top of the series)) 15.2% | Potency [18] | activation ([7]; at 92.4 µM (top of the series)) -11.9% | activation ([8]; at 92.4 µM (top of the series)) 3.86% | activity change, negative = cytotoxicity [9, 21] 21.6% | activation ([10]; at 76.8 µM (top of the series)) -0.248% | activity change, negative = cytotoxicity ([11]; at 154 µM (top of the series) unless noted) -11.8% | activity change, positive = activation ([13]; at 92.4 µM (top of the series)) -26.3% | activity change, negative = cytotoxicity ([14]; at 76.8 µM (top of the series)) -11.3% | Potency [16] | viability change, negative = cytotoxic [19] -8.14% | Potency [17]

C/C1=C2N=C(/C=C3N=C(/C(C)=C4\[N-][C@@](C)([C@@H]5N=C1[C@](C)(CCC(=O)NC[C@@H](C)OP(=O)([O-])O[C@H]1[C@@H](O)[C@@H](n6cnc7cc(C)c(C)cc76)O[C@@H]1CO)[C@H]5CC(N)=O)[C@@](C)(CC(N)=O)[C@@H]4CCC(N)=O)[C@@](C)(CC(N)=O)[C@@H]\3CCC(N)=O)C(C)(C)[C@@H]/2CCC(N)=O.[C-]#N.[Co+3]
inactive: Potency [2] | viability change, negative = cytotoxic ([3]; at 42.5 µM (top of the series)) -20.1% | activity change, negative = cytotoxicity ([4]; at 92.4 µM (top of the series) unless noted) -20.3% [at 42.5 µM] | activity, negative = inhibition ([5]; at 42.5 µM (top of the series)) -7.87% | Potency [18] | viability change, negative = cytotoxic ([6]; at 42.5 µM (top of the series)) -15.8% | Potency [20] | activation ([7]; at 42.5 µM (top of the series)) -6.11% | activity change, negative = cytotoxicity [9, 21] -1.01% [at 35.3 µM] | Potency [12] | activity change, positive = activation ([13]; at 42.5 µM (top of the series)) 0.0957% | activity change, negative = cytotoxicity ([14]; at 35.3 µM (top of the series)) -4.41% | activity change, negative = cytotoxic ([15]; at 35.3 µM (top of the series)) -7.76% | Potency [16] | viability change, negative = cytotoxic [19] -2.7% [at 35.3 µM] | Potency [17]
